Values of other authors as cited in paper PMC5557574, “Selepressin, a novel selective vasopressin V1A agonist, is an effective substitute for norepinephrine in a phase IIa randomized, placebo-controlled trial in septic shock patients” (Critical Care, 2017).

Conditions: cited from earlier work

vasopressin
Half-life (qualitative): short half-life
